Earlier results as cited in patent US20200224136A1, “INTESTINE-CHIP: DIFFERENTIAL GENE EXPRESSION MODEL” (priority 2019, published 2020).

Tested on: Caco-2 cell monolayers
Conditions: cited from earlier work

For Larazotide acetate, the “AT-1002-induced TEER reduction and tight junction opening in Caco-2 cells” value is listed as “rescued” and the “translocation of a gliadin 13-mer peptide across Caco-2 cell monolayers” value is listed as “inhibited”.
